# Assay results: publication PMC3662788, “The Catalytic Roles of P185 and T188 and Substrate-Binding Loop Flexibility in 3α-Hydroxysteroid Dehydrogenase/Carbonyl Reductase from Comamonas testosteroni” (PLoS ONE, 2013)
# What was measured:
# P185A mutant 3α-HSD/CR = biological target: T1, P185A mutant 3α-HSD/CR (Comamonas testosteroni, UniProt P80702, P185A); assay: NADH binding by quenching of intrinsic enzyme fluorescence (fluorescence titration); set-up: His-tag (inferred from pET15b vector and Ni-NTA purification) (N); made in house; host or cells: Escherichia coli BL21(DE3); conditions: 2 µM enzyme, 40 mM Hepes pH 7.5, room temperature
# T1 sequence (P80702 1-257 P185A): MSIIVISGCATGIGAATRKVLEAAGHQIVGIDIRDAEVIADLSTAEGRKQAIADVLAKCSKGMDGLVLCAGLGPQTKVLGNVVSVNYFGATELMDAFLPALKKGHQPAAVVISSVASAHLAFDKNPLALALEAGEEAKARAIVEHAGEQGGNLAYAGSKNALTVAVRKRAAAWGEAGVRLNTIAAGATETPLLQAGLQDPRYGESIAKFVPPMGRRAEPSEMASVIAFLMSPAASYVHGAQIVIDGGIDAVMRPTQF
# wild-type 3α-HSD/CR = biological target: T2, wild-type 3α-HSD/CR (Comamonas testosteroni, UniProt P80702); set-up: His-tag (inferred from pET15b vector and Ni-NTA purification) (N); made in house; host or cells: Escherichia coli BL21(DE3); method as in PMID 19853671; conditions: wild-type NADH-enzyme complex, fluorescence titration, pH 7.5; cited from earlier work
# T2 sequence (P80702 1-257): T1 sequence (P80702 1-257 P185A) with A185P
# T188A mutant 3α-HSD/CR = biological target: T3, T188A mutant 3α-HSD/CR (Comamonas testosteroni, UniProt P80702, T188A); assay: NADH binding by quenching of intrinsic enzyme fluorescence (fluorescence titration); conditions: 2 µM enzyme, 40 mM Hepes pH 7.5, room temperature
# T3 construct: His-tag (inferred from pET15b vector and Ni-NTA purification) (N); made in house; host or cells: Escherichia coli BL21(DE3)
# T188S mutant 3α-HSD/CR = biological target: T4, T188S mutant 3α-HSD/CR (Comamonas testosteroni, UniProt P80702, T188S); assay: as above; conditions: 2 µM enzyme, 40 mM Hepes pH 7.5, room temperature
# T4 construct: His-tag (inferred from pET15b vector and Ni-NTA purification) (N); made in house; host or cells: Escherichia coli BL21(DE3)
substance,measurement,setting,value
NADH,Kd,P185A mutant 3α-HSD/CR,163 ± 29 µM
same,Kd,wild-type 3α-HSD/CR,2.8 ± 0.9 µM
same,Kd,T188A mutant 3α-HSD/CR,97 ± 6 µM
same,Kd,T188S mutant 3α-HSD/CR,94 ± 6 µM

# Substitutions are numbered along the chain they refer to.
